Reference: patent US11771779B2, “Non-metallic magnetic resonance contrast agent” (HADASIT MEDICAL RESEARCH SERVICES & DEVELOPMENT LIMITED, priority 2018, dated 2023)

Test: T1 of hyperpolarized ^15N sites bound to labile protons upon dissolution in H2O and D2O, 5.8 T
Assay type: physicochemical

[^15N]ammonium chloride
T1 upon dissolution in D2O (D2O, ≈37° C. (35-40° C.), 5.8 T, n=2): 150 ± 20 s
T1 upon dissolution in H2O (H2O, ≈37° C. (35-40° C.), 5.8 T, n=2): 46 ± 4 s
T1 prolongation D2O versus H2O (deuteration of labile protons): 3.3 fold
